# Yeast mating assay 1: variants of the scFv Ab-14

The measurements come from Engelhart et al. 2022 (doi:10.1038/s41597-022-01779-4) through the FLAb antibody collection.

The target is the same throughout: PDVDLGDISGINAS, from the HR2 region of SARS-CoV-2 spike.

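The starting antibody came from a phage panning campaign against this peptide. Variants in AAYL49 differ from the parent at up to three CDR positions; double and triple changes were sampled at random. The assay is AlphaSeq: two haploid yeast populations carry antibody and antigen on their surface. Pairs that bind mate more often; barcode pairs of the diploids are counted by sequencing. The ratio of observed to expected reads was calibrated, replicate by replicate, on BCL2-family standards whose Kd was known from biolayer interferometry. Each pool was mated in three replicate cultures.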

Ab-14 is the parent antibody, in scFv form: VH, then the linker GGGGSGGGGSGGGGS, then VL. The light chain is unchanged in all variants.
VH: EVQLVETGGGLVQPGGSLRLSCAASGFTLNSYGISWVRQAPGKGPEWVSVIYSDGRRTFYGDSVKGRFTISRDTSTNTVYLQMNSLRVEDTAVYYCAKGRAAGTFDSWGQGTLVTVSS
VL: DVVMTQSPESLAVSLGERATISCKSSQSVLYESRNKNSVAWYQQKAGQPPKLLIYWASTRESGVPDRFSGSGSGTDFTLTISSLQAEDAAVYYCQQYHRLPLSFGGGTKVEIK

Changes read parent residue, position, new residue, counted from the first residue of the VH shown.
Numbers give log10(Kd / nM), so 0 is 1 nM and 3 is 1 µM. Smaller is tighter.
A mean of the replicates is given; it leaves out those without a signal.
Where no diploid with the target was found in any replicate, the entry reads "not detected": below detection, most likely a poor binder, though not proof of it.
Background: pairings of library AAYL49 with three empty control strains gave a value in 15% of cases (median 4.06, 5th percentile 2.83). Values in that range, when seen in few replicates, are hard to tell from nonspecific mating.

changes | log10 Kd (nM), mean | seen in
T28E+S53P+G103W | 2.02 | 3 of 3
N30S+A102D+G103K | not detected | 0 of 3
G33Q+S35F | not detected | 0 of 3
D54R+S63N+A102C | 4.11 | 1 of 3
S31R+Y32Q+F105M | not detected | 0 of 3
G26N+D62L+G103D | not detected | 0 of 3
I51L+F59W+F105P | 3.25 | 3 of 3
S31Y+Y32W+R57V | not detected | 0 of 3
V50T+S53M+V64F | not detected | 0 of 3
I34P+G55P+V64T | not detected | 0 of 3
I34W+G55W+D62N | not detected | 0 of 3
G33L+I34D+S53E | 4.80 | 1 of 3
G26L+F27G+D106W | 3.13 | 3 of 3
T28H+I34H+S35Q | not detected | 0 of 3
T28L+G99T+A101P | not detected | 0 of 3
I34T+V50G+Y52F | 4.45 | 1 of 3
L29E+A102R+G103N | 3.46 | 1 of 3
L29E+D54L+A101M | 4.92 | 1 of 3
S53L+D62S+G99F | 4.02 | 2 of 3
I34S+V64Q+K65R | 5.20 | 1 of 3
S31M+A101K+G103T | not detected | 0 of 3
I34C+R57W | 3.41 | 1 of 3
I51E+A102F+S107M | not detected | 0 of 3
S31D+T104E+S107I | 0.75 | 3 of 3
R57N+S63W+A101Q | 4.38 | 1 of 3
S35D+D62Y | not detected | 0 of 3
L29S+I34A+A102D | not detected | 0 of 3
V50R+D54A+R56T | not detected | 0 of 3
I51P+S53Q+G61M | not detected | 0 of 3
R56L+K65A+R100Q | 0.86 | 3 of 3
D54E+V64N | not detected | 0 of 3
S53W+S63L+F105H | not detected | 0 of 3
G33F+V64L | not detected | 0 of 3
L29T+F105S+D106Q | 2.99 | 1 of 3
G61V+G103Q+T104N | 1.92 | 3 of 3
S35C+F59V+A102C | 3.88 | 1 of 3
S31E+G55F+R56T | 5.15 | 1 of 3
T28G+G103M+S107R | not detected | 0 of 3
I51A+Y52C | 3.67 | 1 of 3
S31R+R57S+T104Q | not detected | 0 of 3
F27D+I34F+F59C | 4.98 | 1 of 3
L29D+T104P | 2.14 | 1 of 3
A102S+F105Q | 1.40 | 3 of 3
F27I+N30L | 2.95 | 3 of 3
G61D+A101F | 2.87 | 3 of 3
V50I+R57A | not detected | 0 of 3
Y52V+G61M+A102W | not detected | 0 of 3
S31Q+G61S+S63P | 4.17 | 1 of 3
G33A+D62T+V64R | not detected | 0 of 3
L29G+V50H+D54Y | 3.58 | 1 of 3
S31Q+G55L+K65D | not detected | 0 of 3
L29C+I51N+A101K | 4.72 | 2 of 3
N30Y+T58W+K65D | not detected | 0 of 3
S31E+Y52Q+D62H | 4.85 | 1 of 3
F27M+N30K+T104S | 2.10 | 3 of 3
Y32R+R57H+G103V | not detected | 0 of 3
G26N+F27Q+A101R | 3.33 | 3 of 3
Y32F+G61M+V64M | 2.60 | 1 of 3
G55H+R56A+A102H | not detected | 0 of 3
I34Y+S63I+A101K | 3.61 | 1 of 3
G26P+T58D+S63D | 4.89 | 1 of 3
I51D+S53R | 0.61 | 3 of 3
G33P+S35F+G103A | 4.46 | 3 of 3
L29Q+G99E+G103D | not detected | 0 of 3
D54S+D62G+G99N | not detected | 0 of 3
S31E+V50M+A102E | not detected | 0 of 3
S53A+Y60G+V64C | not detected | 0 of 3
L29W+S31M+R56F | 4.77 | 1 of 3
S35K+S107R | not detected | 0 of 3
V50E+G55K+K65R | 3.59 | 1 of 3
Y52F+D62V+A102D | not detected | 0 of 3
G26A+R57S+S63N | 2.86 | 1 of 3
S53N+F59P+Y60T | 4.28 | 2 of 3
S35N+I51Q+S107M | 2.38 | 1 of 3
I51A+T104F | 2.97 | 1 of 3
I51D+T104P+D106Y | not detected | 0 of 3
G26Y+N30I+S31E | 2.67 | 3 of 3

The closing 9 entries, repeated:

changes,"log10 Kd (nM), mean",seen in
S35K+S107R,not detected,0 of 3
V50E+G55K+K65R,3.59,1 of 3
Y52F+D62V+A102D,not detected,0 of 3
G26A+R57S+S63N,2.86,1 of 3
S53N+F59P+Y60T,4.28,2 of 3
S35N+I51Q+S107M,2.38,1 of 3
I51A+T104F,2.97,1 of 3
I51D+T104P+D106Y,not detected,0 of 3
G26Y+N30I+S31E,2.67,3 of 3

For reference, the parent read 0.65 as the reference entry and 4.11 (one replicate of three) as a member of this library.